# In ChEMBL document CHEMBL1154078, “Synthesis of novel purine nucleosides towards a selective inhibition of human butyrylcholinesterase” (Bioorg Med Chem, 2009):
# By UniProt entry, the sequences of proteins in these tests, tags left out.
# UniProt P06276, whole entry: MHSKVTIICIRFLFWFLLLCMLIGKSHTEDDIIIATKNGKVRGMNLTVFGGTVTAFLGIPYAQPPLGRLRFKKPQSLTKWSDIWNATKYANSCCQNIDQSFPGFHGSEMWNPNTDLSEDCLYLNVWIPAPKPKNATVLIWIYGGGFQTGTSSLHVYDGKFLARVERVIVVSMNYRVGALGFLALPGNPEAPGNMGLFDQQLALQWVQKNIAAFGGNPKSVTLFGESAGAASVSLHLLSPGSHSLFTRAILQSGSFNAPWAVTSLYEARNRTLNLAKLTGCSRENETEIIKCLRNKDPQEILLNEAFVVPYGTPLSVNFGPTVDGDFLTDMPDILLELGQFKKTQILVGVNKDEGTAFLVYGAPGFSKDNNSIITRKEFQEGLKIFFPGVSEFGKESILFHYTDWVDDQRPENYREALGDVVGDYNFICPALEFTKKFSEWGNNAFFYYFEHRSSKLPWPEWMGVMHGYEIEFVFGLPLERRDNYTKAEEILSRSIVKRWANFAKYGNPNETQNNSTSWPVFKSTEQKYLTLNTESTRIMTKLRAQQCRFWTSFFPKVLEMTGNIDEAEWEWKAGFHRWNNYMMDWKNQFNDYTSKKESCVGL
# Target: Cholinesterase (Homo sapiens, UniProt P06276)
# Test: Inhibition of BChE in human serum assessed as hydrolysis of butyrylthiocholine by Ellman's method
# Format: cell-free
# How it was run: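 Human serum BChE (0.44 U/mL solution) in 0.1 M phosphate buffer pH 8.0 with S-butyrylthiocholine iodide and DTNB. Absorbance at 410 nm followed kinetically for 4 min at 30 °C, at least four replicates. Inhibition % = 100 − 100·V/V_max, where V_max comes from blanks without inhibitor; one-sided t-test. IC50 obtained by non-linear regression of the dose–response, given as mean ± SEM.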
smiles,measurement,value
CCN(C)C(=O)Oc1cccc([C@H](C)N(C)C)c1 [RIVASTIGMINE],IC50,170 nM
